Reference: patent US8642544B2, “N-terminus conformationally constrained GLP-1 receptor agonist compounds” (Amylin Pharmaceuticals, LLC, priority 2009, dated 2014)

Target: T1, GLP-1 receptor (Rattus norvegicus, UniProt P32301)
T1 construct: 96-well assay plate containing RIN m5f cell membranes in an ATP/GTP mixture; endogenous in cells; host or cells: RIN m5f cell membranes
T1 sequence (P32301 22-463): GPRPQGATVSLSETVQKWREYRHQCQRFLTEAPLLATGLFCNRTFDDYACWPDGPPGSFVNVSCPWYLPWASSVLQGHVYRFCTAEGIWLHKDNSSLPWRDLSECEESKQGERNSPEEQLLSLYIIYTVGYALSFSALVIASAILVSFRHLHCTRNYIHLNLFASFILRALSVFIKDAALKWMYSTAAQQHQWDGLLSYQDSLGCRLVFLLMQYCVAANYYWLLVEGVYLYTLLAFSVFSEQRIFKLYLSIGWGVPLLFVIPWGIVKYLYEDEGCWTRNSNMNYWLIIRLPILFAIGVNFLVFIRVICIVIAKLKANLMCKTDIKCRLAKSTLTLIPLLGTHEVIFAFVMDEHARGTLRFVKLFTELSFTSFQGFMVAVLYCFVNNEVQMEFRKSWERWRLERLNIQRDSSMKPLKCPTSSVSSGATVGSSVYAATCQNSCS
Test: in vitro functional assay at the GLP-1 receptor (cyclase, cAMP production in RIN m5f cell membranes)
Type: biochemical
Conditions: Table 1, cAMP production (AlphaScreen)
Description: The compounds shown in Table 1 below were analyzed in an in vitro functional assay at the GLP-1 receptor. The assay was conducted as follows: Membrane fractions were prepared from confluent cultures of RIN m5f cells. Compounds were serially diluted with an assay buffer, and then added to a 96-well assay plate containing RIN m5f cell membranes in an ATP/GTP mixture. Cyclase activities were determined by measuring the production of cAMP induced through GLP-1 receptor activation. Quantification of cAMP production was achieved through a competitive chemiluminescence assay with a biotinylated-cAMP probe using Perkin Elmer Fusion™-Alpha Microplate Analyzer (AlphaScreen™ technology). The compound EC50 values were obtained through fitting the concentration-response curves to a four-parameter logistic equation within GraphPad PRISM® software.

EC50: 56 nM
Structure (SMILES): CC[C@H](C)[C@H](NC(=O)[C@H](Cc1ccccc1)NC(=O)[C@H](CCC(=O)O)NC(=O)[C@H](CCCCN)NC(=O)[C@H](C)NC(=O)[C@H](C)NC(=O)[C@H](CCC(N)=O)NC(=O)CNC(=O)[C@H](CCC(=O)O)NC(=O)[C@H](CC(C)C)NC(=O)[C@H](Cc1ccc(O)cc1)NC(=O)[C@H](CO)NC(=O)[C@H](CO)NC(=O)[C@@H](NC(=O)[C@H](CC(=O)O)NC(=O)[C@H](CO)NC(=O)[C@@H](NC(=O)[C@H](Cc1ccccc1)NC(=O)[C@@H](NC(=O)[C@@H]1CSC2C[C@@H](C(=O)O)[C@H](NC(=O)[C@H](C)NC(=O)[C@@H](N)Cc3c[nH]cn3)C(=O)N21)[C@@H](C)O)[C@@H](C)O)C(C)C)C(=O)N[C@@H](C)C(=O)N[C@@H](Cc1c[nH]c2ccccc12)C(=O)N[C@@H](CC(C)C)C(=O)N[C@H](C(=O)N[C@@H](CCCCN)C(=O)NCC(=O)N[C@@H](CCCNC(=N)N)C(=O)NCC(=O)O)C(C)C (stereo partly shown) [16G]
